Earlier results on 1 substance are cited in patent US9999655B2, “Use of MKS inhibitor peptide-containing compositions for treating non-small cell lung cancer with same” (Moerae Matrix, Inc., priority 2015, dated 2018).

The data set concerns advanced NSCLC. Conditions: patients with advanced NSCLC; P=0.04; cited from earlier work.

For Cetuximab, the overall survival is listed as 11.3 months.
